The values that follow come from PMC9945734 (BMC Medicine, 2023).

The test system of this assay is PC-3-KQ cells. Nature of the assay: 3D spheroid invasion assay and screening of FDA-approved drugs. The note with it: 0.01 μM (first column so headed); secondary screening of 87 hit compounds (Table S1); compared to vehicle control.

Regarding Gramicidin, the “Invasion rates (%) of each drug’s multiple concentrations (μM)” value turned out to be 99.27%.
